{"sequences": {"note": "The chains behind the UniProt entries cited, without tags or fusion partners.", "UniProt P30551, whole entry": "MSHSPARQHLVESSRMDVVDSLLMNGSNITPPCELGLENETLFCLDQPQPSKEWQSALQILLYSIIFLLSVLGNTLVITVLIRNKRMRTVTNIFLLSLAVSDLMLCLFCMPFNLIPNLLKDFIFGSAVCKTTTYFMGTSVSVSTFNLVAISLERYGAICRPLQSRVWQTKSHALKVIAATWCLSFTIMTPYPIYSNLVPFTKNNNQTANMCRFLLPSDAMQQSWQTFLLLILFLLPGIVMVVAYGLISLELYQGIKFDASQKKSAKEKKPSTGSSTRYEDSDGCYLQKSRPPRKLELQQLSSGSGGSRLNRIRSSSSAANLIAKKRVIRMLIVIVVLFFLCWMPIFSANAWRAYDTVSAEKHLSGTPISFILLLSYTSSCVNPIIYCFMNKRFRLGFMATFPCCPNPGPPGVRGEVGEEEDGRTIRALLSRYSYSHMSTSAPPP"}, "source": "ChEMBL document CHEMBL1127104", "about": "“L-708,474: The C5-cyclohexyl analogue of L-365,260, a selective high affinity ligand for the CCKB/gastrin receptor” (Bioorg Med Chem Lett, 1993)", "target": "Cholecystokinin receptor type A (Rattus norvegicus, UniProt P30551)", "test": "In vitro test for inhibition of [125I]CCK binding to Cholecystokinin type A receptor from rat pancreatic tissues was determined"}
{"smiles": "Cc1cccc(NC(=O)N[C@H]2N=C(C3CCCCC3)c3ccccc3N(C)C2=O)c1", "values": [{"measurement": "IC50", "result": 0.455, "unit": "nM"}]}
